Source: patent US20120220581A1, “IMIDAZO[1,2-b]PYRIDAZINE DERIVATIVES AND THEIR USE AS PDE10 INHIBITORS” (Janssen-Cilag, S.A., priority 2009, published 2012)
Read-outs that look alike come from different tables or passages of the source.

What was measured:
[1] = biological target: T1, Rat recombinant PDE10A (rPDE10A2) (Rattus norvegicus, UniProt Q9QYJ6); experiment: In vitro assay PDE10A (SPA, 3H-cAMP); type: biochemical
T1 construct: inferred from the Ni metal chelate purification; made in house; host or cells: Sf9 insect cells (baculovirus)
T1 sequence (Q9QYJ6 1-794): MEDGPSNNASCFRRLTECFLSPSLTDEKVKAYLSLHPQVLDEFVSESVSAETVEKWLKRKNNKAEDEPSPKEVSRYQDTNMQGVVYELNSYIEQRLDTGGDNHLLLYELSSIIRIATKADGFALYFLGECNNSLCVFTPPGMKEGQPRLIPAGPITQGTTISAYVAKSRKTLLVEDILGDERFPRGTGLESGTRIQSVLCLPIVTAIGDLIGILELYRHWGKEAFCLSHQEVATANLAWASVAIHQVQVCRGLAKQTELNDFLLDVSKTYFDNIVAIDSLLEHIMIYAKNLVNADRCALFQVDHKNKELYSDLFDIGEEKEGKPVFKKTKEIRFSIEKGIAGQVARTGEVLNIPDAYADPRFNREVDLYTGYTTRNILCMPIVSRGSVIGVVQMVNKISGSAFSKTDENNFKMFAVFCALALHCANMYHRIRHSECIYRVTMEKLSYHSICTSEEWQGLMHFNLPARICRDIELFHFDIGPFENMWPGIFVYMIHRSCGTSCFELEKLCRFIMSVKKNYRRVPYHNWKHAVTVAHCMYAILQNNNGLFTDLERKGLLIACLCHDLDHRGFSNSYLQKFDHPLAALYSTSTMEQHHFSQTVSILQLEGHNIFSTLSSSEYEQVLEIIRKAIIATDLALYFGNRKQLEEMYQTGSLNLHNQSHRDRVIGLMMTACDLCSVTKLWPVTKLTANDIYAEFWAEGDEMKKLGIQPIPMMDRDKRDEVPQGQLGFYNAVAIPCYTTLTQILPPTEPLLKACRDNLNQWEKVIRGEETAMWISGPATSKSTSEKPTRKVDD
Description: Rat recombinant PDE10A (rPDE10A2) was expressed in Sf9 cells using a recombinant rPDE10A baculovirus construct. Cells were harvested after 48 h of infection and the rPDE10A protein was purified by metal chelate chromatography on Ni-sepharose 6FF. Tested compounds were dissolved and diluted in 100% DMSO to a concentration 100 fold of the final concentration in the assay. Compound dilutions (0.4 μl) were added in 384 well plates to 20 μl of incubation buffer (50 mM Tris pH 7.8, 8.3 mM MgCl2, 1.7 mM EGTA). 10 μl of rPDE10A enzyme in incubation buffer was added and the reaction was started by addition of 10 μl substrate to a final concentration of 60 nM cAMP and 0.008 μCi ^3H-cAMP. The reaction was incubated for 60 minutes at room temperature. […] After sedimentation of the beads during 30 minutes the radioactivity was measured in a Perkin Elmer Topcount scintillation counter and results were expressed as cpm. For blanc values the enzyme was omitted from the reaction and replaced by incubation buffer. Control values were obtained by addition of a final concentration of 1% DMSO instead of compound. The same assay principle is applied for the measurement of the affinity of the compound for other members of the PDE family with appropriate modifications in incubation buffer, substrate concentration, incubation time and stop solution.

[2] = test system: female hooded-Lister rats; experiment: Object recognition test (NOR) after sub-chronic PCP; type: in vivo, rat; details: mean
Description: 60 female hooded-Lister rats (Charles River, UK) were used as subjects for these studies and weighed 248 g±20 g. Rats were allowed at least a 7-day acclimatization period to the animal unit prior to commencement of experimentation. Rats were housed in groups of 5 under standard laboratory conditions under a 12 h light:dark cycle, lights on at 0700 h. All testing was carried out in the light phase. Food and water were freely provided. All experiments were conducted in accordance with the Animals Scientific Procedures Act, U.K. 1986 and were approved by the University of Bradford ethical review panel.
40 mg of test compound was dissolved in 5 ml of 40% hydroxypropyl β-cyclodextrin (HPBC) solution. […] 2 ml of sterile water was added and the pH measured and adjusted with NaOH solution (0.1N) to obtain pH ˜4. […] 5 ml of sterile water was added and the pH measured and adjusted with NaOH solution (0.1N) to obtain pH ˜4. […]
Certain pre-clinical tests allow the observation of relatively subtle cognitive deficits in the rat that resemble cognitive symptoms in subjects with schizophrenia. The cognitive deficits observed are seen in behaviours such as episodic memory, which can be measured by recognition tasks such as the novel object recognition (NOR) paradigm. […] Object recognition in rats can be measured as the difference in time spent exploring the familiar and the new object. […]

For `COCCc1ccc(-c2c(C)nc3c(N4CCOCC4)ccnn23)cn1` [compound 1, 3-[6-(2-methoxyethyl)-3-pyridinyl]-2-methyl-8-(4-morpholinyl)-imidazo[1,2-b]pyridazine], the IC50 ([1]; Table 4 in vitro selectivity, read-out: PDE 10A2 (expressed as pIC50) (converted)) was 0.0575 µM, the IC50 ([1]; pIC50 corresponds to the −log IC50 expressed in mol/L, read-out: PDE10A2 pIC50 (converted)) was 0.0575 µM and the “DI (discrimination index)” value ([2]; PCP + 0.3 mg/kg p.o.) was 0.3014. For the same molecule, the “DI (discrimination index)” value ([2]; PCP + 1 mg/kg p.o.) was 0.3335.
